# Measured values taken from patent US20250215026A1, “Deuterated Compounds, Compositions and Uses” (BioJive LLC, priority 2018, published 2025).
# Where two headings read alike, the source gives them in different places.
# Conditions: FIG. 2B
structure (smiles),measurement,setting,value
"[2H]C([2H])(/C=C\CCCCC)/C=C\CCCCCCCC(=O)O[C@H](COC(=O)CCCCCCCCCCCCCCCCC)COP(=O)([O-])OCC[N+](C)(C)C [D2-Lin-PC, 1-stearoyl-2-(11,11-D2-linoleyl)-sn-glycero-3-phosphatidylcholine]",ΔA234 time course after addition of Fe2+/ascorbate,high content of D2-Lin-PC,did not increase
same,ΔA234 time course after addition of Fe2+/ascorbate,low percentage of D2-Lin-PC,increased considerably
